# Yeast mating assay B: variants of the scFv Ab-14

The target is the same throughout: PDVDLGDISGINAS, from the HR2 region of SARS-CoV-2 spike.

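The parent was found by panning a naive human phage display library on the peptide. These sequences belong to a second round, designed from the earlier measurements on random variants of the parent. Their group label is 14L_En_Gen (En: ensemble of fine-tuned language models; Gen: genetic algorithm). AlphaSeq pools MATa yeast showing the antibodies with MATalpha yeast showing the peptide. The frequency of each diploid, read from paired DNA barcodes, reflects how well the two displayed proteins bind. The ratio of observed to expected reads was calibrated, replicate by replicate, on BCL2-family standards whose Kd was known from biolayer interferometry. Mating was done six times.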

The variants keep the heavy chain, the linker and the frameworks of Ab-14 (scFv order VH, a (GGGGS)3 linker, VL).
VH: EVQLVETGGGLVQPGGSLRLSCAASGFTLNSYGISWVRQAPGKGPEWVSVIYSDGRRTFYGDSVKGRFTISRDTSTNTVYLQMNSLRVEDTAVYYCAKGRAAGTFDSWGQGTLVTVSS
VL: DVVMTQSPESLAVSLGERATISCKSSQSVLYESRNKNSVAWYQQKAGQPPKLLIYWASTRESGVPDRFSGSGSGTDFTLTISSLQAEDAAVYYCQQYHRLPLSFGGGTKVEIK

Variants are written as CDR1, CDR2 and CDR3 of the light chain (limits as in the source). Parent: KSSQSVLYESRNKNSVA, WASTRES, QQYHRLPLS.
The read-out is the apparent dissociation constant on a log10 scale (nM): the lower, the stronger.
"n.d." marks a missing value. The strain was present, yet no cells mated with the target were sequenced in that replicate, which points to weak or no binding.
Three control strains display no target. For all light chain designs, 4% of the pairings with them gave a signal, with a median of 2.64 and one signal in twenty below 1.59, so weak values seen in few replicates may be background. Also given: how often the same scFv was detected with the empty control strains, with their mean in brackets.
A sequence measured in both rounds can read differently, since the two assays cover different ranges.
The parent sequence was in this pool as ten entries: three were never detected, three once, and four in most replicates, with averages from 0.34 to 2.37.
The authors averaged sequences with at least three values out of six and counted those with two or fewer as poor binders.

{"CDR-L1": "KISSMSNHQSSVANNVA", "CDR-L2": "ENVTREE", "CDR-L3": "QQYFRLPLE", "log10 Kd, replicates": "1.42 0.84 1.01 0.88 1.77 1.27", "control signals": "0 of 18"}
{"CDR-L1": "MISQLYNMGTFMINSVA", "CDR-L2": "QASLRNE", "CDR-L3": "QQYDRLPLM", "log10 Kd, replicates": "1.02 n.d. n.d. n.d. n.d. n.d.", "control signals": "0 of 18"}
{"CDR-L1": "MFSQMTGLGMKAKNSVA", "CDR-L2": "QASMRFN", "CDR-L3": "QQYHRLPLI", "log10 Kd, replicates": "n.d. 2.39 n.d. 2.12 2.72 n.d.", "control signals": "1 of 18 (3.27)"}
{"CDR-L1": "KVSEFMRGLMMRKDSIA", "CDR-L2": "DNETRQS", "CDR-L3": "QQYDRLPLS", "log10 Kd, replicates": "1.31 n.d. 2.42 1.52 1.74 1.07", "control signals": "0 of 18"}
{"CDR-L1": "KISQMIRVGSTHSNSIA", "CDR-L2": "EEATRAK", "CDR-L3": "QQYHRLPLF", "log10 Kd, replicates": "0.68 0.99 0.40 0.51 0.66 0.77", "control signals": "2 of 18 (3.25)"}
{"CDR-L1": "SIGGHMKSLSAHINSVA", "CDR-L2": "DMTNRED", "CDR-L3": "QQYDRLPLS", "log10 Kd, replicates": "0.15 -0.17 -0.35 -0.35 -0.08 0.37", "control signals": "0 of 18"}
{"CDR-L1": "MVTQMAMTGMMSKRSVA", "CDR-L2": "NAEMREN", "CDR-L3": "QQYHRLPLI", "log10 Kd, replicates": "1.73 1.71 2.27 1.85 1.51 1.73", "control signals": "0 of 18"}
{"CDR-L1": "MMSQVTALGQRHRNNVA", "CDR-L2": "QTSMREN", "CDR-L3": "QQYDRLPLI", "log10 Kd, replicates": "0.78 0.52 0.70 1.08 0.71 0.79", "control signals": "2 of 18 (2.44)"}
{"CDR-L1": "KITATMRFEQKASNNIA", "CDR-L2": "EVSMRTK", "CDR-L3": "QQYVRLPLA", "log10 Kd, replicates": "1.03 0.95 0.55 1.10 0.93 1.35", "control signals": "0 of 18"}
{"CDR-L1": "MIGEMLMQGIYKKNSIA", "CDR-L2": "QANLRAD", "CDR-L3": "QHYHRLPLE", "log10 Kd, replicates": "1.89 1.16 1.08 1.31 1.26 0.97", "control signals": "0 of 18"}
{"CDR-L1": "MMSQVTGMGQRHRNNVA", "CDR-L2": "QTSEREP", "CDR-L3": "QQYDRLPLD", "log10 Kd, replicates": "0.76 0.37 0.45 0.05 0.65 -0.12", "control signals": "3 of 18 (2.12)"}
{"CDR-L1": "IVSQLMLWGYHAKNSIA", "CDR-L2": "EAEMRLN", "CDR-L3": "QQYDRLPLF", "log10 Kd, replicates": "n.d. 1.68 3.48 n.d. n.d. n.d.", "control signals": "0 of 18"}
{"CDR-L1": "TISQLHNMGTFAINSVA", "CDR-L2": "QASIRNE", "CDR-L3": "QQYDRLPLM", "log10 Kd, replicates": "1.00 0.85 0.60 1.25 0.92 0.84", "control signals": "2 of 18 (3.07)"}
{"CDR-L1": "KLGMTLNQMVEKKNNVA", "CDR-L2": "DLVEREN", "CDR-L3": "QQYHRLPLS", "log10 Kd, replicates": "0.72 0.38 0.08 0.46 0.56 0.42", "control signals": "0 of 18"}
{"CDR-L1": "MISNVMNTLTRVGNNVA", "CDR-L2": "DLTEREV", "CDR-L3": "QQYFRLPLS", "log10 Kd, replicates": "1.27 n.d. n.d. 0.99 1.37 1.75", "control signals": "0 of 18"}
{"CDR-L1": "KISQMVRVGSTHSNSIA", "CDR-L2": "EEETRAK", "CDR-L3": "QQYHRLPLA", "log10 Kd, replicates": "0.61 0.41 1.60 1.66 0.83 0.98", "control signals": "0 of 18"}
{"CDR-L1": "SLGLMTMLEEYVRNSVA", "CDR-L2": "NNSTRED", "CDR-L3": "QQYDRLPLS", "log10 Kd, replicates": "n.d. n.d. n.d. n.d. n.d. 2.45", "control signals": "1 of 18 (2.47)"}
{"CDR-L1": "KIGMTLNTLMHTKNNVA", "CDR-L2": "DLVTRED", "CDR-L3": "QQYHRLPLS", "log10 Kd, replicates": "0.74 0.50 0.46 0.51 0.61 0.60", "control signals": "0 of 18"}
{"CDR-L1": "HITLGMYVAGRHSHSIA", "CDR-L2": "QAETREK", "CDR-L3": "QQYDRLPLA", "log10 Kd, replicates": "1.02 1.09 1.52 0.99 1.00 1.02", "control signals": "0 of 18"}
{"CDR-L1": "IVSQLMLWGYHAKNSIA", "CDR-L2": "EAQTRLN", "CDR-L3": "QQYDRLPLW", "log10 Kd, replicates": "1.83 n.d. 2.49 n.d. n.d. n.d.", "control signals": "0 of 18"}
{"CDR-L1": "NIYQAMHELMQKKDNVA", "CDR-L2": "DVTERGN", "CDR-L3": "QQYFRLPLS", "log10 Kd, replicates": "0.40 0.48 0.08 0.28 -0.03 0.39", "control signals": "0 of 18"}
{"CDR-L1": "HMSALTLMGSRTRNSVA", "CDR-L2": "QMTTREN", "CDR-L3": "QQYDRLPLA", "log10 Kd, replicates": "0.54 0.43 0.51 0.30 0.59 0.75", "control signals": "2 of 18 (3.61)"}

The 2 strongest on average among those seen in every replicate, once more:

| CDR-L1 | CDR-L2 | CDR-L3 | log10 Kd, replicates | control signals |
|---|---|---|---|---|
| SIGGHMKSLSAHINSVA | DMTNRED | QQYDRLPLS | 0.15 -0.17 -0.35 -0.35 -0.08 0.37 | 0 of 18 |
| NIYQAMHELMQKKDNVA | DVTERGN | QQYFRLPLS | 0.40 0.48 0.08 0.28 -0.03 0.39 | 0 of 18 |

Source: Li et al. 2023 (doi:10.1038/s41467-023-39022-2), MIT Lincoln Laboratory and A-Alpha Bio; data file from the FLAb repository.